# From patent US7183436B2, “Substituted 4-aminocyclohexanols” (dated 2007)
# Sequences of proteins named here, by UniProt entry; tags and fusion partners are left off. A change or cut given only in a name is not applied to a line headed by its entry.
# UniProt P41146: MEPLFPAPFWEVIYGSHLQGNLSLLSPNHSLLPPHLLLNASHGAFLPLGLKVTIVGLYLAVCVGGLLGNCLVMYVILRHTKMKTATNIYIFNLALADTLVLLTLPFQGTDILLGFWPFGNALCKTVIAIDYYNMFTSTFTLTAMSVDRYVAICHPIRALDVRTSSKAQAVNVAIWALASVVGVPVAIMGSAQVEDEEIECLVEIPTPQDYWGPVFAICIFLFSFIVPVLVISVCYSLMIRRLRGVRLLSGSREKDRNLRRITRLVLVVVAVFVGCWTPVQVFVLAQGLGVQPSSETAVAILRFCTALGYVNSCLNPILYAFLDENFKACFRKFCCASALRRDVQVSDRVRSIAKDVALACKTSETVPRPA
# Target: ORL1 receptor (Homo sapiens, UniProt P41146)
# Assay: ORL1 receptor binding assay with 3H-nociceptin/Orphanin FQ
# Settings: membranes of recombinant CHO-ORL1 cells; 0.5 nM 3H-nociceptin/Orphanin FQ
row,Structure (SMILES),Ki [nM]
1,CN(C)C1(c2ccccc2)CCC(O)(c2cc3ccccc3o2)CC1 (stereo not drawn),66
2,CN(C)C1(c2ccccc2)CCC(O)(c2nc3ccccc3s2)CC1 (stereo not drawn),430
3,CN(C)C1(c2ccccc2)CCC(O)(c2cc3ccccc3s2)CC1 (stereo not drawn),7.2
4,CN(C)C1(c2ccccc2)CCC(O)(c2cc3ccccc3n2C)CC1 (stereo not drawn),24
5,CN(C)C1(c2ccccc2)CCC(O)(c2csc3ccccc23)CC1 (stereo not drawn),3.4
6,CN(C)C1(c2ccccc2)CCC(O)(c2cc3ccccc3n2S(=O)(=O)c2ccccc2)CC1 (stereo not drawn),110
